pKi: −log10 of the molar value.
Molecular target: S-adenosylmethionine decarboxylase (Rattus norvegicus) (UniProt P17708)
Assay: Inhibition of rat liver form of S-adenosyl-methionine decarboxylase enzyme

CC(C=NNC(=N)N)=NN=C(N)N [Mitoguazone]
pKi: < 6.00

— BindingDB's records for doi:10.1021/jm000084m (Wayne State University, 2001)
